Biological target: T1, FLT3 (Homo sapiens, UniProt P36888)
T1 construct: purchased Invitrogen PV3182
Test: In vitro kinase activity assay (PKLight), FLT3
Type: biochemical
Experimental: The recombinant enzymes (CDK2/CyclinA, FLT3, JAK2 and JAK2 V617F) were purchased from Invitrogen (Cat #PV3267, 3182, 4210 and 4347 respectively). All assays were carried out in 384-well white microtiter plates using the PKLight assay system from Cambrex (East Rutherford, N.J.). This assay platform is essentially a luminometric assay for the detection of ATP in the reaction using a luciferase-coupled reaction. For CDK2/Cyclin A assay, the reaction mixture consisted of the following components in 25 μL assay buffer (50 mM Hepes pH 7.5, 10 mM MgCl2, 5 mM MnCl2, 5 mM BGP, 1 mM DTT, 0.1 mM sodium orthovanadate), 1.4 μg/mL of CDK2/Cyclin A complex, 0.5 μM of RbING substrate (Invitrogen, Cat #PV2939) and 0.5 μM of ATP. The compounds were tested at 8 concentrations prepared from 4-fold serial dilution starting at 10 μM. The reaction was incubated at room temperature for 2 hr. 13 μL of PKLight ATP detection reagent was added and the reaction was incubated for 10 min. Luminescence signals were detected on a multi-label plate reader (Victor^2 V 1420, Perkin-Elmer). The other kinase assays were identical except for the following differences in reagents. For FLT3 assays, the reaction contained 2.0 μg/mL FLT3 enzyme, 5 μM of poly(Glu,Tyr) substrate (Sigma, Cat #P0275) and 4 μM of ATP. […]

Amino acid sequences for entries named in this document (tags omitted). Residues count along the entry.
UniProt P36888, 27-993: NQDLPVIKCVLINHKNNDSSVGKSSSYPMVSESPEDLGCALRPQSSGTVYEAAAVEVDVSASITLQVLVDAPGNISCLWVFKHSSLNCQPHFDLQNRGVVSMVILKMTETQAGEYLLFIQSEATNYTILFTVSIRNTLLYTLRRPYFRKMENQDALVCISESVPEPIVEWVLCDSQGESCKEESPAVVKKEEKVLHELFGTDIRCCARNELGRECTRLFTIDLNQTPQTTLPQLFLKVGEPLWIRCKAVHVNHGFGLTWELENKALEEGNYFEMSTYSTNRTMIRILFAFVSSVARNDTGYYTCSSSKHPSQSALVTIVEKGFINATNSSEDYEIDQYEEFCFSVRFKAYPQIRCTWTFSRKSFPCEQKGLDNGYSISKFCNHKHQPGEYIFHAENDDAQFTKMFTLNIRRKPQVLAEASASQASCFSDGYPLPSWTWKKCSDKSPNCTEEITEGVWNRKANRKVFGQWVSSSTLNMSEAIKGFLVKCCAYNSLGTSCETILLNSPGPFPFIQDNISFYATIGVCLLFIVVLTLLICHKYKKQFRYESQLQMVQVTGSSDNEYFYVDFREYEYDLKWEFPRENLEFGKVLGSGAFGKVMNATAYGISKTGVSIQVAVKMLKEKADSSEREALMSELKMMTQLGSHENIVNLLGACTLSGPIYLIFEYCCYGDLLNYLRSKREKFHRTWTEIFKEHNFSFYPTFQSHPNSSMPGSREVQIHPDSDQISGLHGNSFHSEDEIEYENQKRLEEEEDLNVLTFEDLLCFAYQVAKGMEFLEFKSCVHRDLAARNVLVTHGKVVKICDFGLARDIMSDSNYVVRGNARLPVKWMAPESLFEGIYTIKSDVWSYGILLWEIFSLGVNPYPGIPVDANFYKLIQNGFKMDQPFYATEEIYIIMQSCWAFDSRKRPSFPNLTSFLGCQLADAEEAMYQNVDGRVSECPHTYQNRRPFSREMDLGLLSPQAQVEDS

IC50: ≤ 1000 nM
Compound: C1=C/COCc2cc(ccc2OCCN2CCCC2)Nc2nccc(n2)-c2cccc(c2)COC/1 [Compound 13]

— patent US9573964B2, “Oxygen linked pyrimidine derivatives” (CTI BIOPHARMA CORP., priority 2005, dated 2017)
